Source: BindingDB's records for doi:10.1111/j.1476-5381.1995.tb14977.x (Syntex Discovery Research, 1995)

The chains behind the UniProt entries cited, without tags or fusion partners.
UniProt P14842, whole entry: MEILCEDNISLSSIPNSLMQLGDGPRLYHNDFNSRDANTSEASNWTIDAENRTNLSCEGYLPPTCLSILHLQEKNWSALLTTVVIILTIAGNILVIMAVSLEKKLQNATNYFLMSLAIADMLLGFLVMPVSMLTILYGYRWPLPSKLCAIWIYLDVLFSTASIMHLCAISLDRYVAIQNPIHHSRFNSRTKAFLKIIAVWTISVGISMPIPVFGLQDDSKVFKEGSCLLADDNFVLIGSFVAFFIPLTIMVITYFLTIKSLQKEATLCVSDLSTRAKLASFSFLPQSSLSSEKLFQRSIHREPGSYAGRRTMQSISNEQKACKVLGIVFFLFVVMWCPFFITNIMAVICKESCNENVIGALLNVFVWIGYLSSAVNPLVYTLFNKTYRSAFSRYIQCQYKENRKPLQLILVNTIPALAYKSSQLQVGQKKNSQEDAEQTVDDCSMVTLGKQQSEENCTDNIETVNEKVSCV
UniProt P30994, whole entry: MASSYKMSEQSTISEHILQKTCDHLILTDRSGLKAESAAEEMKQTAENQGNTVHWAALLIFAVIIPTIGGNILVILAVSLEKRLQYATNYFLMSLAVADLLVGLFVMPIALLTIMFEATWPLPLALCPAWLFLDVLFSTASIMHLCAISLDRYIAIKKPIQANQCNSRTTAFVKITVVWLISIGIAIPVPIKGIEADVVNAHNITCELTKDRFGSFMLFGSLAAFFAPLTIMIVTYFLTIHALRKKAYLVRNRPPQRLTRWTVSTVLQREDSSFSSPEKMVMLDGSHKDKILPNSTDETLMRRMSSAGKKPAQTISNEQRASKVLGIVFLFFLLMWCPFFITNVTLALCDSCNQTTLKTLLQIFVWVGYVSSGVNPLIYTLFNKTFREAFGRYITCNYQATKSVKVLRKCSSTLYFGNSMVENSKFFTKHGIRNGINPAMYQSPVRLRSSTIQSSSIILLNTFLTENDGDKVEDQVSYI

Tests used:
[1] = molecular target: 5-hydroxytryptamine receptor 2A (Rattus norvegicus, UniProt P14842)
[2] = molecular target: T1, 5-hydroxytryptamine receptor 2C (Rattus norvegicus, UniProt P08909)
T1 sequence (P08909 whole entry): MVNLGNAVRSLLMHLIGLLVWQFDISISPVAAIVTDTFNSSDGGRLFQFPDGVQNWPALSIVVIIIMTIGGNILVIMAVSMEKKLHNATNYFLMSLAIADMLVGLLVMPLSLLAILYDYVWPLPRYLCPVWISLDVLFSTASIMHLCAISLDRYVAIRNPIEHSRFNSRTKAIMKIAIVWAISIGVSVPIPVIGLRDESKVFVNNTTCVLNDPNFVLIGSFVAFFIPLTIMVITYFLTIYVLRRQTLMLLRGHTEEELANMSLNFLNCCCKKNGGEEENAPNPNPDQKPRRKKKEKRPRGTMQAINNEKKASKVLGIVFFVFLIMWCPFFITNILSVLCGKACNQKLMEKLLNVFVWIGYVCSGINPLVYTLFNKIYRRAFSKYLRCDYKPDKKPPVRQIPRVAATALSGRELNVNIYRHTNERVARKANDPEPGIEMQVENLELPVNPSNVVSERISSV

[3] = molecular target: 5-hydroxytryptamine receptor 2B (Rattus norvegicus, UniProt P30994)

Structure (SMILES): Cc1nc2sccn2c(=O)c1CCN1CCC(=C(c2ccc(F)cc2)c2ccc(F)cc2)CC1
- Ki [1]: 0.31 nM
- Ki [2]: 1.58 nM
- Ki [3]: 5.01 nM
